Source: PubChem BioAssay AID1224865 (Sanford-Burnham Center for Chemical Genomics, 2016)
The list shows a part of the results, in another mix than the full data. Calls of active or inactive are those of the source. No stated cut-off is given here; in the data, active means activity change above about 30% (passing the limit was not always enough); inactive means the rest.

Amino acid sequences for entries named in this document (tags omitted).
UniProt P41235, whole entry: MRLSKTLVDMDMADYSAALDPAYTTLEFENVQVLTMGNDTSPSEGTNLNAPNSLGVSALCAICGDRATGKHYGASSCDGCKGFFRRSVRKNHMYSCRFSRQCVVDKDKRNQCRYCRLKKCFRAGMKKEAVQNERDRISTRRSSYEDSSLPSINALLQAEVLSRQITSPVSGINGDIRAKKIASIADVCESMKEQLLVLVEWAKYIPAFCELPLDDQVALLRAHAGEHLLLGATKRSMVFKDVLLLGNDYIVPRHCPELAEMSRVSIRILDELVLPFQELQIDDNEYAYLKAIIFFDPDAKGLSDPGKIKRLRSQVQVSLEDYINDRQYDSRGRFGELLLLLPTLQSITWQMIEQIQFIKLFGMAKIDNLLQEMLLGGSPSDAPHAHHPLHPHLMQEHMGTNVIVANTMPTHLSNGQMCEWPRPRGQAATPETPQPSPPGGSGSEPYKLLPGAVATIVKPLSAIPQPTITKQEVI

Molecular target: Hepatocyte nuclear factor 4-alpha (Homo sapiens) (UniProt P41235)
Experiment: HNF4-alpha DNA association modulation – biochemical, fluorescence polarization, FITC-DNA, primary screen (AID 1224865)
Conditions: HNF4a-FITC DNA binding, 1 h, at 10 µM, active compounds read high

Q: O=C(OC1CN2CCC1CC2)c1cccc(Cl)c1 (centres undefined) was tested. Which activity change did it give?
A: inactive: 2.61%

Q: For O=[N+]([O-])c1ccc(O)c(/C=N/Nc2ccc([N+](=O)[O-])cc2[N+](=O)[O-])c1, which activity change is on record?
A: inactive: -7.07%

Q: Which activity change does the source give for O=[N+]([O-])c1ccc(OP2(=O)COCCO2)cc1 (centres undefined) here?
A: inactive: -0.13%

Q: CC(=O)NC(SC(=S)N(C)C)C(Cl)(Cl)Cl (centres undefined) was tested. Which activity change did it give?
A: inactive: -2.74%

Q: Which activity change does the source give for O=[N+]([O-])c1ncn(CCn2cnc([N+](=O)[O-])n2)n1 here?
A: inactive: -0.43%

Q: For Cc1cc(-c2cccc3ccccc23)c(C)cn1.O=[N+]([O-])c1cc([N+](=O)[O-])c(O)c([N+](=O)[O-])c1, which activity change is on record?
A: inactive: 0.94%

Q: O=[N+]([O-])c1cc([N+](=O)[O-])c(NCC2CCS(=O)(=O)C2)c([N+](=O)[O-])c1 (centres undefined) was tested. Which activity change did it give?
A: inactive: -0.28%

Q: Which activity change does the source give for O=[As](O)(c1ccccc1)c1ccc(O)cc1 here?
A: inactive: -1.19%

Q: For C[C@H]1OP(=O)(Oc2ccccc2)[C@H](O)[C@H](O)[C@H]1N=[N+]=[N-] (some centres undefined), which activity change is on record?
A: inactive: -1.13%

Q: How did the activity change turn out when CN(C)CCOC(=O)C(O)(c1ccccc1)C1CCCCC1 (centres undefined) was run?
A: inactive: -0.61%

Q: O=P(Nc1nc2ccccc2s1)(c1ccccc1)c1ccccc1 was tested. Which activity change did it give?
A: inactive: 6.02%

Q: COc1ccc(NP(C)(=O)Oc2ccccc2OC)cc1 (centres undefined) was tested. Which activity change did it give?
A: inactive: 0.4%

Q: Which activity change does the source give for COc1ccc(N)c([N+](=O)[O-])c1[N+](=O)[O-] here?
A: inactive: -7.98%

Q: Which activity change does the source give for COc1ccc(OP(C)(=O)Nc2cccc(Br)c2)cc1 (centres undefined) here?
A: inactive: -0.07%

Q: O=P(Nc1ccccn1)(c1ccc(Br)cc1)c1ccc(Br)cc1 was tested. Which activity change did it give?
A: inactive: 3.06%

Q: How did the activity change turn out when CN(C)C1(CNC(=O)c2ccc(Cl)c(S(N)(=O)=O)c2)CCCCC1 was run?
A: inactive: 3.21%

Q: How did the activity change turn out when Cc1ccccc1NP(C)(=O)Nc1ccccc1C was run?
A: inactive: -4.44%

Q: For O=[N+]([O-])c1cc([N+](=O)[O-])c(C(F)(F)F)c([N+](=O)[O-])c1O, which activity change is on record?
A: inactive: 5.64%

Q: For CP(=O)(Nc1ccc2c(c1)OCCO2)Oc1ccccc1 (centres undefined), which activity change is on record?
A: inactive: 1.24%

Q: CCOP(C)(=S)SCC(=O)NC(C)(CC)C(=O)O (centres undefined) was tested. Which activity change did it give?
A: inactive: 0.75%

Q: c1nnnn1CCn1cnnn1 was tested. Which activity change did it give?
A: inactive: 0.41%

Q: For CP(=O)(Nc1ccc(SC(F)(F)F)cc1)Oc1ccc(F)cc1 (centres undefined), which activity change is on record?
A: inactive: -2.77%

Q: How did the activity change turn out when CC(C)C(=O)NC(Sc1ccccc1)C(Cl)(Cl)Cl (centres undefined) was run?
A: inactive: 3.14%

Q: Which activity change does the source give for O=P(Nc1nccs1)(c1ccccc1)c1ccccc1 here?
A: inactive: -0.14%

Q: For CN(C)C(=O)OCCc1n(C)cc[n+]1C, which activity change is on record?
A: inactive: -0.71%

Q: For CN(C)C(=O)c1c([N+](=O)[O-])cc([N+](=O)[O-])cc1[N+](=O)[O-], which activity change is on record?
A: inactive: 1.07%

Q: How did the activity change turn out when CC(C)=N/N=C(\N)N[N+](=O)[O-] was run?
A: inactive: 2.59%

Q: With CC(C)c1nc(Nc2ccccc2)n(P(=O)(N(C)C)N(C)C)n1 as the compound, how does the activity change read?
A: inactive: 2.09%

Q: For c1cc(-c2nn[nH]n2)ccc1-c1nn[nH]n1, which activity change is on record?
A: inactive: -1.91%

Q: Which activity change does the source give for CC1CCN(C(=O)Oc2c(Cl)cc(Cl)c3cccnc23)CC1 here?
A: inactive: 6.76%

Q: C[N+]1=C2C=CC=CC=C2SC12C([N+](=O)[O-])=CC([N+](=O)[O-])=C[C-]2[N+](=O)[O-] (centres undefined) was tested. Which activity change did it give?
A: inactive: -39.5%

Q: For CC(C)(C)c1ccc(OP(C)(=O)O)cc1, which activity change is on record?
A: inactive: 0.8%

Q: Nc1ccc([As](=O)(O)c2ccc(N)cc2)cc1 was tested. Which activity change did it give?
A: inactive: 3.36%

Q: For COc1ccccc1OP(C)(=O)Nc1ccccc1Br (centres undefined), which activity change is on record?
A: inactive: 1.62%

Q: With CP(=O)(Nc1ccc(Cl)cc1)Oc1ccc(F)cc1 (centres undefined) as the compound, how does the activity change read?
A: inactive: -2.95%

Q: With CCN(/C(=N/P(=O)(N1CCOCC1)N1CCOCC1)N1CCOCC1)c1ccc(OC)cc1 as the compound, how does the activity change read?
A: inactive: -3.42%

Q: Which activity change does the source give for O=C(OCCCN1CCCC1)C(O)(c1ccccc1)C1CCCCC1 (centres undefined) here?
A: inactive: 3.1%

Q: With COc1ccccc1OP(C)(=O)Nc1c(C)n(C)n(-c2ccccc2)c1=O (centres undefined) as the compound, how does the activity change read?
A: inactive: 1.26%

Q: Which activity change does the source give for O=[N+]([O-])c1cccc2n[nH]nc12 here?
A: inactive: -1.24%

Q: How did the activity change turn out when CC(=O)N1C2C3N(C(C)=O)C1C1N(C(C)=O)C(C(N1C(C)=O)N3C(C)=O)N2C(C)=O was run?
A: inactive: 1.05%

Q: For CCc1nc2c(n1)c1c(non1O)c1c2no[n+]1[O-], which activity change is on record?
A: inactive: -3.57%

Q: How did the activity change turn out when O=[N+]([O-])c1cc([N+](=O)[O-])c(CCNc2ccccc2)c([N+](=O)[O-])c1 was run?
A: inactive: 1.32%

Q: With CCc1ccc(OP(C)(=O)Nc2cccnc2)cc1 (centres undefined) as the compound, how does the activity change read?
A: inactive: -3.64%

Q: With Cc1ccc(NP(=O)(Oc2ccccc2)Oc2ccccc2)nc1 as the compound, how does the activity change read?
A: inactive: 5.77%

Q: For CP(=O)(Oc1ccccc1)N1CCOC1=O (centres undefined), which activity change is on record?
A: inactive: 0.06%

Q: COc1ccc(C2=NCC(CBr)S2)cc1 (centres undefined) was tested. Which activity change did it give?
A: inactive: 2.14%

Q: COc1ccc(OP(C)(=O)Nc2ccc(Br)cc2)cc1 (centres undefined) was tested. Which activity change did it give?
A: inactive: -2.66%

Q: Which activity change does the source give for CCN(CC)CC(O)COC(=O)C(O)(c1ccccc1)C1CCCCC1 (centres undefined) here?
A: inactive: -3.84%

Q: With O=[N+]([O-])c1cccc(NC2=NCC(CBr)S2)c1 (centres undefined) as the compound, how does the activity change read?
A: inactive: -0.71%

Q: COC(=O)C1(C)COP(=O)(Nc2ccccc2)OC1 (centres undefined) was tested. Which activity change did it give?
A: inactive: -0.76%

Q: For O=C(O)CNc1ccc([As](=O)(O)O)cc1, which activity change is on record?
A: inactive: 0.62%

Q: With CC(C)(C)C(=O)NC(Sc1ccncn1)C(Cl)(Cl)Cl (centres undefined) as the compound, how does the activity change read?
A: inactive: -0.8%

Q: Which activity change does the source give for O=[N+]([O-])c1ncn(CCn2ncnc2[N+](=O)[O-])n1 here?
A: inactive: -0.75%

Q: How did the activity change turn out when O=C(Nc1cc([As](=O)(O)O)ccc1O)c1ccccc1 was run?
A: inactive: 1.12%

Q: For CCOC(=O)c1ccc(NP(C)(=O)Oc2ccc(Cl)cc2)cc1 (centres undefined), which activity change is on record?
A: inactive: -0.66%

Q: With CP(=O)(OC12CC3CC(CC(C3)C1)C2)OC12CC3CC(CC(C3)C1)C2 as the compound, how does the activity change read?
A: inactive: -3.49%

Q: With O=P1(N(CCCl)CCCl)OCCCS1 (centres undefined) as the compound, how does the activity change read?
A: inactive: 0.83%

Q: Which activity change does the source give for CCN(N=Nc1nonc1N)c1nonc1N here?
A: inactive: -2.56%

Q: Which activity change does the source give for CP(=O)(OCCOc1ccccc1)OCCOc1ccccc1 here?
A: inactive: -2.17%

Q: With CP(=O)(Nc1ccc(Cl)cc1Cl)Oc1ccccc1 (centres undefined) as the compound, how does the activity change read?
A: inactive: 1.68%

Q: For CCCCCCCCCCCCCCCC1C[N+](C)(C)CCOP(C)(=O)O1 (centres undefined), which activity change is on record?
A: inactive: 7.66%

Q: Which activity change does the source give for Nc1cccc2ccc([As](=O)(O)O)cc12 here?
A: inactive: -5.6%

Q: Which activity change does the source give for Cc1ccc(NP(=O)(Oc2ccccc2F)Oc2ccccc2F)nc1 here?
A: inactive: 4.59%

Q: CN(C(=O)Cc1ccc(Cl)c(Cl)c1)[C@H]1CCCC[C@@H]1N1CCCC1 was tested. Which activity change did it give?
A: inactive: -1.02%
